Results as given in EP0457318B1, “Alpha-Oxopyrrolo[2,3-b]indole acetic acids, esters, amides and related analogs, a process for their preparation and their use as medicaments” (HOECHST-ROUSSEL PHARMACEUTICALS INCORPORATED, priority 1990, dated 1991).

Protein sequences, listed by entry. Tags and fused reporters are not part of them. Lines headed by an entry give the natural chain unless they say otherwise; changes in a name come on top.
UniProt P37136: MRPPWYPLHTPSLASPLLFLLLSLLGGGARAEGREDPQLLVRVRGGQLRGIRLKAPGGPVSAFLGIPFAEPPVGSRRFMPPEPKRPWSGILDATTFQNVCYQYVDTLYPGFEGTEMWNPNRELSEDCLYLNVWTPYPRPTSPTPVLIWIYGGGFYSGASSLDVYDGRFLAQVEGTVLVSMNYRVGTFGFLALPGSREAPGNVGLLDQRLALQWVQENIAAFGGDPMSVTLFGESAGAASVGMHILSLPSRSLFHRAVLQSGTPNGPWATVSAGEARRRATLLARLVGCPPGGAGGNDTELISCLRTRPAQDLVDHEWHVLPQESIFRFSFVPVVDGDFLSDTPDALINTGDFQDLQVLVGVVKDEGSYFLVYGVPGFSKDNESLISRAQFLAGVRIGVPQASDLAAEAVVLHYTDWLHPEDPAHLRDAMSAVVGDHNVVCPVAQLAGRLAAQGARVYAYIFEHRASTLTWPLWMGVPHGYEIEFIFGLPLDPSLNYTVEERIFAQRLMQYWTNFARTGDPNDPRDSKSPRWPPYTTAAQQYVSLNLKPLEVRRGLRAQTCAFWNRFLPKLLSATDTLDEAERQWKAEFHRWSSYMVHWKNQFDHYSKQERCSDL

Target: Brain AChE (Rattus norvegicus, UniProt P37136)
Assay: In vitro inhibition of acetylcholinesterase activity in rat striatum (modified Ellman method)
Type: biochemical
Conditions: read-out: Inhibitory Concentration (IC50) Brain AChE; rat striatum homogenate, preincubated 10 minutes at 37°C, 5 mM acetylthiocholine, pH 7.2
Source text: Cholinesterases are found throughout the body, both in the brain and in serum. However, only brain acetylcholinesterase (AChE) distribution is correlated with central cholinergic innervation. […] We have determined in vitro inhibition of acetylcholinesterase activity in rat striatum according to the method described below.
In Vitro Inhibition of Acetylcholinesterase Activity in Rat Striatum
The method described below was used in this invention for assaying anticholinesterase activity. This is a modification of the method of Ellman et al., Biochem. Pharmacol. 7, 88 (1961).
• 1. 0.05 M Phosphate buffer, pH 7.2 • (a) 6.85 g NaH2PO4·H2O/100 ml distilled H2O • (b) 13.40 g Na2HPO4·7H2O/100 ml distilled H2O • (c) add (a) to (b) until pH reaches 7.2 • (d) Dilute 1:10 • 2. Substrate in buffer • (a) 198 mg acetylthiocholine chloride (10 mM) • (b) q.s. to 100 ml with 0.05 M NaPO4, pH 7.2 (reagent 1) • 3. […] If active, IC50 values are determined from the inhibitory activity of subsequent concentrations. […]
Enzyme activity is measured with the Beckman DU-50 spectrophotometer. […]
Blank values are determined for each run to control non enzymatic hydrolysis of substrate and these values are automatically substracted by the kindata program available on kinetics soft-pac module. This program also calculates the rate of absorbance change for each cuvette. […]
IC50 values are calculated from log-probit analysis.

Work on Physostigmine yielded an IC50 of 6 nM.
